Where “and” joins values, the source holds several entries; their conditions need not be identical. Identical values can stand only once.
How the values were obtained:
[1] = target: T1, Hordeum HPPD (SEQ ID NO:2) (Hordeum vulgare, UniProt O48604, A164G/R146V/R147D/R148G); test: HPPD activity assay, in vitro characterization; type: biochemical
T1 construct: subcloned into a modified pET24D (Novagen) expression vector resulting in N-terminally His-tagged expression constructs; His (N); made in house; host or cells: E. coli BL21 (DE3)
Experimental: (§1) HPPD produces homogentisic acid and CO2 from 4-hydroxyphenylpyruvate (4-HPP) and O2. The activity assay for HPPD is based on the analysis of homogentisic acid by reversed phase HPLC.
(§2) The assay mixture can contain 150 mM potassium phosphate buffer pH 7.0, 50 mM L-ascorbic acid, 100 μM Catalase (Sigma-Aldrich), 1 μM FeSO4 and 0.2 units of purified HPPD enzyme in a total volume of 505 μl. 1 unit is defined as the amount of enzyme that is required to produce 1 nmol of HGA per minute at 20° C.
(§3) After a preincubation of 30 min the reaction is started by adding 4-HPP to a final concentration of 0.05 mM. The reaction is allowed to proceed for 45 min at room temperature. The reaction is stopped by the addition of 50 μl of 4.5 M phosphoric acid. The sample is filtered using a […] pore size PVDF filtration device.
(§4) 5 μl of the cleared sample is analyzed on an UPLC HSS T3 column (particle size 1.8 μm, dimensions 2,1×50 mm; Waters) by isocratic elution using 90% 20 mM NaH2PO4 pH 2.2, 10% methanol (v/v).
(§5) HGA is detected electrochemically at 750 mV (mode: DC; polarity: positive) and quantified by integrating peak areas (Empower software; Waters).
Inhibitors are dissolved in DMSO (dimethylsulfoxide) to a concentration of 0.5 mM. From this stock solution serial five-fold dilutions are prepared in DMSO, which are used in the assay. […] IC50 values are calculated using non-linear regression.
Using methods which are described in the above examples or well known in the art, purified, recombinant wildtype HPPD enzymes are characterized with respect to their kinetic properties and sensitivity towards HPPD inhibiting herbicides. Apparent michaelis constants (Km) and maximal reaction velocities (Vmax) are calculated by non-linear regression with the software GraphPad Prism 5 (GraphPad Software, La Jolla, USA) using a substrate inhibition model. […] Weighted means (by standard error) of Km and IC50 values are calculated from at least three independent experiments. […] To assess the potential performance of a herbicide tolerance trait a tolerance index (TI) is calculated using the following formula: […]

Chains of the proteins cited; added tags and fusions are not shown. Lines headed by an entry give the natural chain unless they say otherwise; changes in a name come on top.
UniProt O48604, whole entry R146V/R147D/R148G/A164G: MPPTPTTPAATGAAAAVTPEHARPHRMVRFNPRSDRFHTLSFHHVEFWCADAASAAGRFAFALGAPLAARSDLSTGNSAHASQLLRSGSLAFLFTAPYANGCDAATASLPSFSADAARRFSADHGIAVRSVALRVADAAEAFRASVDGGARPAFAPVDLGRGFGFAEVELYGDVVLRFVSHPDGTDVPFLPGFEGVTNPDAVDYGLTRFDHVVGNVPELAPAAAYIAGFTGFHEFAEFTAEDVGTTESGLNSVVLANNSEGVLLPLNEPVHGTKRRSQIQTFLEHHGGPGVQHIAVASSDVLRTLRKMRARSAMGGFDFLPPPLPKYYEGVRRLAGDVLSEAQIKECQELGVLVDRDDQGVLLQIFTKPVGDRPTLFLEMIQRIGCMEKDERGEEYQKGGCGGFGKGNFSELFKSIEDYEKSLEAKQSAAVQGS
UniProt O48604, whole entry R146V/R147D/R148G/A164G/L320H: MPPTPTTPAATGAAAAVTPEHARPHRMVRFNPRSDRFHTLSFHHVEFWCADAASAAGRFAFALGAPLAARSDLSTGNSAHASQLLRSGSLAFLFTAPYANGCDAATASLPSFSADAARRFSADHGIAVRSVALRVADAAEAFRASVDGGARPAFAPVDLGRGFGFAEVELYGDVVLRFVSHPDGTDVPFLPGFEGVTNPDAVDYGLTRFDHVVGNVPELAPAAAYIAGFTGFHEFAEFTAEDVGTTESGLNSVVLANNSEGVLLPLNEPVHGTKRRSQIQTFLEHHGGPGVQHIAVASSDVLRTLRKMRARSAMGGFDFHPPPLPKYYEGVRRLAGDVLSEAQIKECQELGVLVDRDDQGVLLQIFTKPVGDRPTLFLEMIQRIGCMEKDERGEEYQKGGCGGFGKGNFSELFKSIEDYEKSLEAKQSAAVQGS
UniProt O48604, whole entry R146V/R147D/R148G/A164G/L320H/P321A: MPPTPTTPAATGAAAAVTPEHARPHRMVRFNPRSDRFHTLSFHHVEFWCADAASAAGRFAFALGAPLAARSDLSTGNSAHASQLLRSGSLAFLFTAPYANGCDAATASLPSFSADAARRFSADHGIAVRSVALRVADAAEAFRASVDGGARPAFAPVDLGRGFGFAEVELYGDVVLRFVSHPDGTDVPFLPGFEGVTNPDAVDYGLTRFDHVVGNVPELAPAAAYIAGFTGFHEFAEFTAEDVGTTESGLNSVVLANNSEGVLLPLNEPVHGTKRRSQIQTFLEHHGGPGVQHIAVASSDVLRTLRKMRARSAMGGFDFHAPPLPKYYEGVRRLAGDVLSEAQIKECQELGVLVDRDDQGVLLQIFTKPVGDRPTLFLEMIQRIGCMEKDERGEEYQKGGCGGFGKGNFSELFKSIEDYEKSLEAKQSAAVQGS
UniProt P93836: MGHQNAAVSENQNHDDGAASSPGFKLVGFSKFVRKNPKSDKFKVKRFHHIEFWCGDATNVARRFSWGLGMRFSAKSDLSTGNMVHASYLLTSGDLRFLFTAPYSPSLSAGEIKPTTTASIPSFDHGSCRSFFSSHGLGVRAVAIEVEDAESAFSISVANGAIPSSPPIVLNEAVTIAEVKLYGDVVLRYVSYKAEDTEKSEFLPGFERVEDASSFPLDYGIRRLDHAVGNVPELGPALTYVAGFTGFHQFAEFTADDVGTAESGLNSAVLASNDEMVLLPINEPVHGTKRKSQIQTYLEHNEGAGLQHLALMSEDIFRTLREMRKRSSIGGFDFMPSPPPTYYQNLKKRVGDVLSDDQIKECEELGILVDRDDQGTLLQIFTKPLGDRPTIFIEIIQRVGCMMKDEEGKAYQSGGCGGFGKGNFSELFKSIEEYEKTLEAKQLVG

Rhodococcus HPPD1 = test: HPPD activity assay, in vitro characterization; type: biochemical; details: normalized to Hordeum SEQ ID NO:2
Experimental: as §1, §2, §3, §4, §5
(§6) Inhibitors are dissolved in DMSO (dimethylsulfoxide) to a concentration of 0.5 mM. From this stock solution serial five-fold dilutions are prepared in DMSO, which are used in the assay. The respective inhibitor solution accounts for 1% of the assay volume. Thus, final inhibitor concentrations range from 5 μM to 320 μM, respectively. Activities are normalized by setting the uninhibited enzyme activity to 100%. IC50 values are calculated using non-linear regression.
(§7) Using methods which are described in the above examples or well known in the art, purified, recombinant wildtype HPPD enzymes are characterized with respect to their kinetic properties and sensitivity towards HPPD inhibiting herbicides. Apparent michaelis constants (Km) and maximal reaction velocities (Vmax) are calculated by non-linear regression with the software GraphPad Prism 5 (GraphPad Software, La Jolla, USA) using a substrate inhibition model. Apparent kcat values are calculated from Vmax assuming 100% purity of the enzyme preparation. Weighted means (by standard error) of Km and IC50 values are calculated from at least three independent experiments. The Cheng-Prusoff equation for competitive inhibition (Cheng, Y. C.; Prusoff, W. H. Biochem Pharmacol 1973, 22, 3099-3108) is used to calculate dissociation constants (Ki). • Field performance of the HPPD enzyme, which is used as a herbicide tolerance trait, may depend not only on its lack of sensitivity towards HPPD inhibiting herbicides but also on its activity. To assess the potential performance of a herbicide tolerance trait a tolerance index (TI) is calculated using the following formula: […]
(§8) The reference SEQ ID NO:2 was included as a comparative control in a representative number of experiments and the values given in Table 12 are the average values from a number of experiments. The TI values given for various HPPD enzymes from different organisms are normalized to the value of the reference SEQ ID NO:2.

[2] = test system: Zea mays HPPD mutant Seq ID 67; test: HPPD activity assay, in vitro characterization; type: biochemical; details: normalized to Hordeum SEQ ID NO:2
Experimental: as §1, §2, §3, §4, §5, §6, §7, §8

Kordia HPPD = test: HPPD activity assay, in vitro characterization; type: biochemical; details: normalized to Hordeum SEQ ID NO:2
Experimental: as §1, §2, §3, §4, §5, §6, §7, §8

Rhodococcus HPPD2 = test: HPPD activity assay, in vitro characterization; type: biochemical; details: normalized to Hordeum SEQ ID NO:2
Experimental: as §1, §2, §3, §4, §5, §6, §7, §8

Lolium HPPD = test: HPPD activity assay, in vitro characterization; type: biochemical; details: normalized to Hordeum SEQ ID NO:2
Experimental: as §1, §2, §3, §4, §5, §6, §7, §8

[3] = test system: Zea mays HPPD mutant Seq ID 69; test: HPPD activity assay, in vitro characterization; type: biochemical; details: normalized to Hordeum SEQ ID NO:2
Experimental: as §1, §2, §3, §4, §5, §6, §7, §8

Arabidopsis HPPD = target: T2, Arabidopsis HPPD (Arabidopsis thaliana, UniProt P93836); test: HPPD activity assay (homogentisic acid by HPLC), in vitro characterization; type: biochemical
T2 construct: His6 (N); made in house; host or cells: E. coli BL21 (DE3)
Experimental: as §1, §2, §3, §4, §5
(§9) Inhibitors are dissolved in DMSO (dimethylsulfoxide) to a concentration of 0.5 mM. From this stock solution serial five-fold dilutions are prepared in DMSO, which are used in the assay. […] IC50 values are calculated using non-linear regression. […]

Picrophilus HPPD = test: HPPD activity assay, in vitro characterization; type: biochemical, Picrophilus torridus; details: normalized to Hordeum SEQ ID NO:2
Experimental: as §1, §2, §3, §4, §5, §9

[4] = target: T3, Hordeum HPPD variant L320H (Hordeum vulgare, UniProt O48604, A164G/L320H/R146V/R147D/R148G); test: HPPD activity assay, in vitro characterization of HPPD mutants; type: biochemical; details: normalized to wild-type
T3 construct: His (N); made in house; host or cells: E. coli BL21 (DE3)
Experimental: as §1, §2, §3, §4, §5
as §6, with “Thus, final inhibitor concentrations range from 5 μM to 320 μM, respectively.” left out
(§10) Purified, mutant HPPD enzymes are obtained by the methods described above. Dose response and kinetic measurements are carried out using the described HPPD activity assay. Apparent michaelis constants (Km) and maximal reaction velocities (Vmax) are calculated by non-linear regression with the software GraphPad Prism 5 (GraphPad Software, La Jolla, USA) using a substrate inhibition model. […] Weighted means (by standard error) of Km and IC50 values are calculated from at least three independent experiments.
(§11) Field performance of the optimized HPPD enzyme, which is used as a herbicide tolerance trait may depend not only on its lack of sensitivity towards HPPD inhibiting herbicides but also on its activity. To assess the potential performance of a herbicide tolerance trait a tolerance index (TI) is calculated using the following formula: […]

[5] = target: T4, Hordeum HPPD variant L320H, P321A (Hordeum vulgare, UniProt O48604, L320H/P321A); test: as above; type: biochemical; details: normalized to wild-type
T4 construct: His (N); made in house; host or cells: E. coli BL21 (DE3)
Experimental: as §1, §2, §3, §4, §5
as §6, with “Thus, final inhibitor concentrations range from 5 μM to 320 μM, respectively.” left out
as §10, §11

**Q.** What does the source list for CSc1c(Cl)cc(F)c(C(=O)Nc2nnnn2C)c1Cl [Inhibitor 2, 2,4-dichloro-6-fluoro-3-methylsulfanyl-N-(1-methyltetrazol-5-yl)benzamide]?
**A.** Normalized tolerance index (TI) ([1]; Hordeum HPPD Wild-type (SEQ ID NO: 2), reference of Table 16): 1; Normalized tolerance index (TI) ([1]; Hordeum HPPD, reference, normalized to SEQ ID NO:2): 1; TI (tolerance index) ([1]; Hordeum HPPD, not normalized): 5E−3; Normalized tolerance index (TI) (Rhodococcus HPPD1): 0.4; Normalized tolerance index (TI) [2]: 12.3; Normalized tolerance index (TI) (Kordia HPPD): 0.4; Normalized tolerance index (TI) (Rhodococcus HPPD2): 0.4; Normalized tolerance index (TI) (Lolium HPPD): 3.0; Normalized tolerance index (TI) [3]: 3; Normalized tolerance index (TI) (Arabidopsis HPPD; Arabidopsis HPPD Wildtype (SEQ ID: 53), reference): 1; TI (tolerance index) (Arabidopsis HPPD; Arabidopsis HPPD, not normalized): 19.5E−3; Normalized tolerance index (TI) (Picrophilus HPPD): 0.4; Normalized tolerance index (TI) [4]: 4 and 4.5; Normalized tolerance index (TI) [5]: 3.6
